Experimental data as given in patent US8076367B2, “Benzimidazolylidene propane-1,3-dione derivative or salt thereof” (Astellas Pharma Inc., priority 2004, dated 2011).

Sequences of proteins named here, by UniProt entry; tags and fusion partners are left off.
UniProt P30968, whole entry: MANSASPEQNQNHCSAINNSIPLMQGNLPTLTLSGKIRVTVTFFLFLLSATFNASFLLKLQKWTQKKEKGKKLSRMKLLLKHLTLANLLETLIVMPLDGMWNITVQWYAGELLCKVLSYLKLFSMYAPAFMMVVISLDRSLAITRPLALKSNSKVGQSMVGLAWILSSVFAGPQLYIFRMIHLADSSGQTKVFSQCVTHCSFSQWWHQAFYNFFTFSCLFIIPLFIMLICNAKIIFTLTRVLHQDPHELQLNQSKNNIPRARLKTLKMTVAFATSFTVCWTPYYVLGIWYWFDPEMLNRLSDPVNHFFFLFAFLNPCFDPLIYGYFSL
UniProt P08684, whole entry: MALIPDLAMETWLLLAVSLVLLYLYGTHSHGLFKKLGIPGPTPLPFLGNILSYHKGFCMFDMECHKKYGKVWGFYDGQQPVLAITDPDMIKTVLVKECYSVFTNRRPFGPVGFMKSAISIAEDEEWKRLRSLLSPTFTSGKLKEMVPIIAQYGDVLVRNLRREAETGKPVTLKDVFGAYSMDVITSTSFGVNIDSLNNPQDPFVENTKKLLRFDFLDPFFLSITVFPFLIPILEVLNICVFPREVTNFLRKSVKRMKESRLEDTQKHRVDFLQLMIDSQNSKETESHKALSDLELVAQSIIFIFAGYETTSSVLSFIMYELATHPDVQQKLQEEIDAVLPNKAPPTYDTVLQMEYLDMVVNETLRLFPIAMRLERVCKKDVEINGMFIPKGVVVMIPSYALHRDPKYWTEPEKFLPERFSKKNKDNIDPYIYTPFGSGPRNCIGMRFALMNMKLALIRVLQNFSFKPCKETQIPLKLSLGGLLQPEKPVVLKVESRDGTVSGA

How the values were obtained:
human GnRH receptor = human GnRH receptor (Homo sapiens, UniProt P30968); assay: Test on GnRH receptor antagonism (125I-D-Trp6-LHRH binding inhibition); conditions: read-out: GnRH receptor antagonism (A) IC50, inhibition of 125I-D-Trp6-LHRH binding to human GnRH receptor
Description: GnRH receptor antagonism of the compounds of the invention was evaluated by calculating their concentration for inhibiting 50% of the binding of ^125I-D-Trp^6-LHRH to human GnRH receptor (IC50 value), in accordance with the 1. GnRH receptor antagonism test method described on p. 56 of the Patent Reference 1.

[1] = Measurement of blood concentration of a compound by ex vivo binding assay; conditions: Wistar male rat, oral 10 mg/kg in 0.5% MC, serum 2 hours after administration
Description: Each compound to be tested was dissolved or suspended in 0.5% methyl cellulose (MC) solution and was orally administered to Wistar male rat of 9 weeks of age (SLC Japan) at a dose of 10 mg/kg. Blood sample was collected after 2 hours of the administration to obtain serum.
Each serum sample was mixed with the same volume of methanol to remove protein and optionally diluted with an assay buffer, and then the ^125I-D-Trp^6-LHRH binding inhibition ratio was measured in the same manner as in Test Example 1. Using a separately prepared calibration curve on the concentration-binding inhibition of compounds to be tested, blood concentration of each compound (μM) was calculated from the binding inhibition ratio.

Cytochrome P450 (CYP3A4) = Cytochrome P450 (CYP3A4) (Homo sapiens, UniProt P08684); conditions: human liver microsome 0.1 mg protein/ml, substrate midazolam, 37° C. 20 minutes

Row | Structure (SMILES) | pIC50 (human GnRH receptor) | Blood compound concentration (B) 2 hour value [1] | CYP3A4 Inhibitory activity I (Cytochrome P450 (CYP3A4)) | pIC50 (human GnRH receptor; tested form: HCl) | Blood compound concentration (B) 2 hour value ([1]; tested form: HCl) | CYP3A4 Inhibitory activity I (Cytochrome P450 (CYP3A4); tested form: HCl)
1 | CC(=O)Nc1ccc(CNc2ccc3c(c2)NC(=C(C(=O)c2cccc(C)c2)C(=O)c2cc(F)cc(F)c2)N3)cc1 | 9.01 | 1290 nM | 53% | – | – | –
2 | Nc1cccc(C(=O)C(C(=O)c2cc(F)cc(F)c2)=C2Nc3ccccc3N2)c1 | – | – | – | 9.02 | 1490 nM | 40%
3 | O=C(C(C(=O)c1cc(F)cc(F)c1)=C1Nc2ccc(NCc3cccnc3)cc2N1)c1ccccc1 | 9.72 | 40 nM | 58% | – | – | –

pIC50: −log10 of the molar value. Like-named read-outs stand apart in the source and are kept apart here.
